Screens: PubChem, Broad Institute
Hits are enriched below; roughly 1.8% of the tested compounds scored in any of these assays.
MLL AF4-AF9 inh: inhibitors of human MLL-AF4/AF9 interaction; AlphaScreen, biotin-AF4 peptide binding to FLAG-AF9; P42568; inhibition, % at 10 µM; 350,000 compounds, 0.47% hits;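 active = every replicate reaching a set inhibition limit, whatever the replicate mean, cut at about 25% in these data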;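 also: 0% = plate neutral control median and 100% = total signal loss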
Yeast UUG start: modulators of start codon recognition fidelity in yeast | S. cerevisiae UUG-firefly luciferase reporter, luminescence/redox ratio | activity score, % at 18.7 µM | 350,000 tested, 0.13% active;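 active = replicate mean at a twofold rise or more, about +100% in these data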;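 also: firefly luciferase made from a UUG start codon reports start codon fidelity; reporter light over untreated wells divided by growth signal over untreated wells; some hits fall short of that in this replicate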
E-selectin induc: induces E-selectin expression in human endothelial cells; HUVEC E-selectin immunofluorescence imaging; normalized: neutral wells 0, TNF-alpha wells 100; activation, % at 7.58 µM; P16581; 260,000 compounds, 0.37% hits;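 active = mean E-selectin-positive cell signal at least 10% of the positive control, reached in at least 60% of replicates, without over 20% cell loss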
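material = human umbilical vein endothelial cells (HUVEC), E-selectin induction | quantity = 3,000 cells/well | medium = EGM-2 growth medium on 0.1% gelatin-coated wells | technique = immunofluorescence imaging | read-out basis = % PE-positive cells | control set = TNF-alpha positive control, DMSO neutral control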
RAD54 branch: RAD54 (human) branch migration inhibition | RAD54 Holliday junction branch migration, FAM/BHQ fluorescence | inhibition, % at 10.4 µM | Q92698 | AID 602329 | 360,000 compounds, 0.14% hits;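 active = mean normalized replicate activity at least 40 and at least half of replicates scoring 40 or more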;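 also: 0% = median of neutral control wells and 100% = median of positive control wells; inhibitors cause a drop in the FAM fluorescence signal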
RAD52 inh: inhibitors of human RAD52 DNA annealing. 360,000 compounds, 0.46% hits. P43351. recombinant RAD52 DNA annealing, FRET fluorescence. inhibition, % at 18.7 µM;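 active = every replicate showing at least 50% inhibition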
SIRT5 block: blocks human SIRT5 desuccinylation of peptide; Q9NXA8; Purified SirT5, succinyl-peptide AMC, trypsin-coupled fluorescence; inhibition, % at 15 µM; 330,000 compounds, 1.1% hits; AID 652115; in the data active = inhibition above about 15%
Numbers without * were called inactive; / = no result given; ! = not confirmed by another sample.

The opening 2 compounds (preview)
SMILES | MLL AF4-AF9 inh | Yeast UUG start | E-selectin induc | RAD54 branch | RAD52 inh | SIRT5 block
C[C@@H]1CN([C@H](C)CO)C(=O)c2cc(NS(C)(=O)=O)ccc2O[C@@H](C)CCCCO[C@@H]1CN(C)S(=O)(=O)c1cccs1 | -2.0 | -1.8 | -0.2 | 0.1 | 6.7 | -1.1
COc1ccccc1-c1ccc(C2[C@@H]3CN(S(=O)(=O)c4ccccc4C)C[C@H]2N3)cc1 (stereo partly specified) | 1.1 | / | 0.0 | / | 50.8* | 13.3

The list itself, repeating the preview:
SMILES | MLL AF4-AF9 inh | Yeast UUG start | E-selectin induc | RAD54 branch | RAD52 inh | SIRT5 block
C[C@@H]1CN([C@H](C)CO)C(=O)c2cc(NS(C)(=O)=O)ccc2O[C@@H](C)CCCCO[C@@H]1CN(C)S(=O)(=O)c1cccs1 | -2.0 | -1.8 | -0.2 | 0.1 | 6.7 | -1.1
COc1ccccc1-c1ccc(C2[C@@H]3CN(S(=O)(=O)c4ccccc4C)C[C@H]2N3)cc1 (stereo partly specified) | 1.1 | / | 0.0 | / | 50.8* | 13.3
Cc1ccccc1S(=O)(=O)N1C[C@@H]2N[C@H](C1)C2c1ccc(-c2ccc(C(=O)N(C)C)cc2)cc1 (stereo partly specified) | 5.2 | / | -0.8 | / | 38.9 | 7.9
COc1cccc(S(=O)(=O)N2C[C@@H]3N[C@H](C2)C3c2ccc(-c3ccccc3OC)cc2)c1 (stereo partly specified) | 1.7 | / | 0.4 | / | 55.8*! | 8.7
COc1ccccc1-c1ccc([C@@H]2[C@@H]3CN(S(=O)(=O)c4ccc(-c5ccccc5)cc4)C[C@H]2N3)cc1 | -6.2 | / | -0.8 | / | 87.8* | 20.7*
Cc1ccccc1S(=O)(=O)N1C[C@@H]2N[C@H](C1)C2c1ccc(-c2ccc(C#N)cc2)cc1 (stereo partly specified) | -6.3 | / | -0.1 | / | 72.0*! | 10.9
CC(C)CC#Cc1ccc2c(c1)O[C@@H](CN(C)C(=O)Cc1ccccn1)[C@H](C)CN([C@H](C)CO)S2(=O)=O | 6.6 | -0.8 | -0.2 | -1.4 | 3.5 | 2.4
COCC(=O)Nc1ccc2c(c1)C(=O)N(C)C[C@H](OC)[C@H](C)CN(C(C)=O)[C@H](C)CO2 | 0.5 | -9.5 | -0.2 | -10.6 | -8.0 | 0.1
Cc1noc(C)c1S(=O)(=O)N(C)C[C@H]1OCCCC[C@@H](C)Oc2ccc(NC(=O)C3CCCCC3)cc2C(=O)N([C@@H](C)CO)C[C@H]1C | 2.2 | 2.6 | 0.1 | 2.2 | -13.1 | 3.8
COc1cccc(-c2ccc(C3[C@@H]4CN(S(=O)(=O)c5cccc(OC)c5)C[C@H]3N4)cc2)c1 (stereo partly specified) | -4.7 | / | 0.1 | / | 70.2*! | 9.0

Overlap with the part before: two compounds, followed by the next part.
SMILES | MLL AF4-AF9 inh | Yeast UUG start | E-selectin induc | RAD54 branch | RAD52 inh | SIRT5 block
Cc1noc(C)c1S(=O)(=O)N(C)C[C@H]1OCCCC[C@@H](C)Oc2ccc(NC(=O)C3CCCCC3)cc2C(=O)N([C@@H](C)CO)C[C@H]1C | 2.2 | 2.6 | 0.1 | 2.2 | -13.1 | 3.8
COc1cccc(-c2ccc(C3[C@@H]4CN(S(=O)(=O)c5cccc(OC)c5)C[C@H]3N4)cc2)c1 (stereo partly specified) | -4.7 | / | 0.1 | / | 70.2*! | 9.0
COc1cccc(S(=O)(=O)N2C[C@@H]3N[C@H](C2)C3c2ccc(-c3ccccc3C)cc2)c1 (stereo partly specified) | -4.4 | / | -0.1 | / | 42.8 | 12.5
COc1ccc(S(=O)(=O)Nc2ccc3c(c2)CC(=O)N([C@@H](C)CO)C[C@H](C)[C@@H](CN(C)C(=O)Nc2ccc4c(c2)OCO4)O3)cc1 | -0.1 | 4.3 | 0.5 | 4.7 | -4.4 | 3.1
COc1cccc(CC(NC(C)=O)C(=O)NC2CCN(S(=O)(=O)c3ccc(F)cc3)CC2)c1OC (stereo unspecified) | -2.3 | -15.3 | / | 8.3 | -20.3 | 9.9
COc1ccc(S(=O)(=O)N2CCC(NC(=O)C(Cc3cccc(OC)c3OC)NC(C)=O)CC2)cc1 (stereo unspecified) | -1.0 | / | / | / | -15.9 | 18.1*
O=C(O)c1cc([N+](=O)[O-])ccc1Nc1ccccc1 | 28.4* | -3.5 | / | 0.0 | -18.4 | 3.0
Cc1cccc(Nc2ccc([N+](=O)[O-])cc2C(=O)O)c1 | 1.8 | / | / | / | 0.5 | /
CCCn1c(CN2CCN(C(=O)OCC)CC2)nc2cc(NC(C)=O)ccc21 | -0.9 | -8.6 | -0.1 | 3.6 | -13.9 | 17.5*
O=C(Nc1ccccc1F)N1CC(=O)N2[C@H](CO)[C@H](c3ccc(C#CC4CCCC4)cc3)[C@H]2C1 | 3.2 | / | -0.1 | / | 13.6 | -2.3
COC(=O)/C=C1\N/C(=N\c2nc(C)cc(C)n2)N(c2ccc(C)cc2)C1=O | 0.7 | / | 465.9* | / | -0.1 | 0.4
COC(=O)/C=C1\N/C(=N\c2nc(C)cc(C)n2)N(c2ccccc2)C1=O | 4.3 | -24.1 | 1.2 | -4.1 | 6.2 | 0.3
COC(=O)N/N=C/c1cn(Cc2ccc(Cl)cc2Cl)c2ccccc12 | 9.8 | -12.2 | / | 18.2 | -6.8 | 19.8*
Cc1cccc(Nc2ncnc3onc(-c4ccc(F)cc4)c23)c1C | 2.9 | 60.4 | -0.3 | -5.2 | -20.0 | 16.1*
CC(C)NC(=O)N1[C@H](CN(C)C(=O)c2ccccc2)[C@@H](c2ccccc2)[C@@H]1CO | -0.6 | -6.3 | 0.1 | 2.7 | -13.8 | 18.0*
COCC(=O)N(C)C[C@H]1[C@H](c2ccccc2)[C@@H](CO)N1C(=O)Cc1ccncc1 | -1.6 | -8.9 | 0.4 | 5.0 | 4.9 | 20.0*
Cc1ccc(S(=O)(=O)N(C)C[C@@H]2OCCCC[C@H](C)Oc3ccc(NC(=O)NC4CCCCC4)cc3C(=O)N([C@H](C)CO)C[C@H]2C)cc1 | -3.3 | -4.6 | -0.3 | -9.3 | 11.4 | 15.5*
Cc1ccc(S(=O)(=O)N(C)C[C@H]2OCCCC[C@@H](C)Oc3ccc(NS(=O)(=O)c4ccccc4)cc3C(=O)N([C@@H](C)CO)C[C@@H]2C)cc1 | -0.6 | 32.5 | 5.9 | -7.0 | -7.1 | 18.8*
Cc1ccc(S(=O)(=O)N(C)C[C@@H]2OCCCC[C@@H](C)Oc3ccc(NS(=O)(=O)c4ccccc4)cc3C(=O)N([C@@H](C)CO)C[C@H]2C)cc1 | 2.2 | 13.0 | 0.0 | -4.9 | 17.5 | 18.6*
Cc1ccc(S(=O)(=O)Nc2ccc3c(c2)C(=O)N([C@@H](C)CO)C[C@H](C)[C@H](CN(C)S(=O)(=O)c2ccccc2)OCCCC[C@@H](C)O3)cc1 | 0.2 | -10.1 | -0.1 | -6.0 | -10.8 | 24.2*
O=C(C[C@H]1C[C@H]2c3cc(NC(=O)c4cccnc4)ccc3O[C@H]2[C@H](CO)O1)NCc1cccc(F)c1 | -0.9 | -17.9 | -0.2 | -8.7 | 6.4 | 0.5
Cc1ccc(S(=O)(=O)N(C)C[C@H]2OCCCC[C@H](C)Oc3ccc(NS(=O)(=O)c4ccccc4)cc3C(=O)N([C@@H](C)CO)C[C@@H]2C)cc1 | 1.5 | 24.0 | 0.1 | -3.0 | -5.1 | 18.8*
O=C(CC(c1ccco1)S(=O)(=O)c1ccccc1)c1ccccc1 (stereo unspecified) | 1.7 | -31.2 | 0.1 | 6.1 | -15.5 | 20.3*
Cc1ccc(S(=O)(=O)NCC(c2ccco2)S(=O)(=O)c2ccccc2)cc1 (stereo unspecified) | 0.4 | 7.4 | / | 0.4 | -1.7 | -2.0
CCC(C)N1CCC2(CC1)N=c1c(c3c4c5c(C)c(O)c3c(O)c1=NC(=O)C(C)=CC=C[C@H](C)[C@H](O)[C@@H](C)[C@@H](O)[C@@H](C)[C@H](OC(C)=O)[C@H](C)[C@@H](OC)C=CO[C@@](C)(O5)C4=O)N2 (stereo partly specified) | 27.0* | 3.5 | 0.0 | -12.2 | 14.1 | 7.4
C[C@@H]1CCCCO[C@H](CN(C)C(=O)Nc2ccc3c(c2)OCO3)[C@H](C)CN([C@H](C)CO)C(=O)c2cc(NC(=O)Cc3ccccc3)ccc2O1 | / | -6.0 | 0.1 | 7.5 | / | /
CC(=O)Nc1ccc(OCCC[n+]2ccccc2)cc1 | 30.8* | / | / | / | 1.1 | 3.2
